In patent US20240024320A1, “METHODS OF TREATING CANCER WITH A COMBINATION OF TUCATINIB AND AN ANTI-PD-1/ANTI-PD-L1 ANTIBODY” (Seagen Inc., priority 2020, published 2024):

Tested on: Fo5 tumors
Test: Fo5 trastuzumab-resistant HER2-positive murine tumor model: tumor growth and survival
Design: species or system FVB mice
Conditions: mouse, in vivo

Substance: trastuzumab: anti-HER2 antibody given by intraperitoneal injection, 30 mg/kg loading dose then 15 mg/kg weekly
- tumor volume and survival (validation of trastuzumab resistance): resistance was validated
